Measured values from US5087614A, “Enzyme inhibitor and method of producing the same” (Suntory Limited, priority 1987, dated 1992).

Protein sequences, listed by entry. Tags and fused reporters are not part of them. Residues count along the entry.
UniProt P00792, 43-372 limits assumed: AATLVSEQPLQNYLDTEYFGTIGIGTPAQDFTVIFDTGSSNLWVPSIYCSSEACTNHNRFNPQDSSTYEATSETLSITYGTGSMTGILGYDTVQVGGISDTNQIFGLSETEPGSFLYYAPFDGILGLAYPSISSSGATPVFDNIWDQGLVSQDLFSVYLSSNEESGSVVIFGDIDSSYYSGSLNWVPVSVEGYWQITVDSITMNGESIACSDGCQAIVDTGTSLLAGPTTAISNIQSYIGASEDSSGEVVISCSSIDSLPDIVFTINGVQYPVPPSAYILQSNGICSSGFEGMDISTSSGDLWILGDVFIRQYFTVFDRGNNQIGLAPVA

Key:
[1] = target: Pepsin (Bos taurus, UniProt P00792); assay: Inhibition against pepsin (hemoglobin degradation, UV absorption at 280 nm); settings: read-out: IC50 (concentration of the compound required to achieve 50% inhibition); substrate 2.0% hemoglobin in 0.06N-hydrochloric acid, 35° C., 10 minutes
[2] = Solubility in solvents (physicochemical properties)

Structure (SMILES) | IC50 [1] [nM] | Solubility in butanol [2] | Solubility in methanol, ethanol and dimethyl sulfoxide [2] | Solubility in water, benzene, ether, petroleum ether, chloroform, carbon tetrachloride, hexane and ethyl acetate [2]
COC(=O)C(C)C(=O)N[C@H](C(=O)N[C@H](C(=O)N[C@@H](CC(C)C)[C@@H](O)CC(=O)N[C@@H](C)C(=O)N[C@@H](CC(C)C)C(C)=O)C(C)C)C(C)C (some centres unmarked) | 25.4 | soluble | easily soluble | sparingly soluble
COC(=O)C[C@H](O)[C@H](CC(C)C)NC(=O)[C@H](C)NC(=O)C[C@H](O)[C@H](CC(C)C)NC(=O)[C@@H](NC(=O)[C@@H](NC(=O)C(C)C(=O)O)C(C)C)C(C)C (some centres unmarked) | 22.4 | soluble | easily soluble | sparingly soluble
CC(C)C[C@H](NC(=O)[C@H](C)NC(=O)C[C@H](O)[C@H](CC(C)C)NC(=O)[C@@H](NC(=O)[C@@H](NC(=O)C(C)C(=O)O)C(C)C)C(C)C)[C@@H](O)CC(=O)O (some centres unmarked) | 14.3 | soluble | easily soluble | sparingly soluble
CC(C)C[C@H](NC(=O)[C@H](C)NC(=O)C[C@H](O)[C@H](CC(C)C)NC(=O)[C@H](C)NC(=O)C[C@H](O)[C@H](CC(C)C)NC(=O)[C@@H](NC(=O)[C@@H](NC(=O)C(C)C(=O)O)C(C)C)C(C)C)[C@@H](O)CC(=O)O (some centres unmarked) | 29.1 | soluble | easily soluble | sparingly soluble
CC(=O)[C@H](CC(C)C)NC(=O)[C@H](C)NC(=O)C[C@H](O)[C@H](CC(C)C)NC(=O)[C@@H](NC(=O)[C@@H](NC(=O)C(C)C(=O)O)C(C)C)C(C)C (some centres unmarked) | 26 | soluble | easily soluble | sparingly soluble
